Experimental data from patent US6780994B2, “Phthalimido arylpiperazines useful in the treatment of benign prostatic hyperplasia” (Ortho-McNeil Pharmaceutical, Inc., priority 1998, dated 2004).

Protein sequences, listed by entry. Tags and fused reporters are not part of them.
UniProt P35348, whole entry: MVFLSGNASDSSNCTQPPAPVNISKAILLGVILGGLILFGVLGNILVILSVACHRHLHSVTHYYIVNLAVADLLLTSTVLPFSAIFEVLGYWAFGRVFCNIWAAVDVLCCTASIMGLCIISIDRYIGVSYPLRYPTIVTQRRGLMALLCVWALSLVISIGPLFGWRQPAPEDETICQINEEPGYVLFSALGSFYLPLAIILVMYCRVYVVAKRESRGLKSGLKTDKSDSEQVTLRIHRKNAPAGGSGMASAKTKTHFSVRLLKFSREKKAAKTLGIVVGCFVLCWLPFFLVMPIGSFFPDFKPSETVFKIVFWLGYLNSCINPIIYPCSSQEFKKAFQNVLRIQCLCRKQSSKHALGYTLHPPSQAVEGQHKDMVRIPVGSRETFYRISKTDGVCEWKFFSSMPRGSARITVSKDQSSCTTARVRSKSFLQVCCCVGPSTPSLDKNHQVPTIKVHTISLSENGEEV
UniProt P25100, whole entry: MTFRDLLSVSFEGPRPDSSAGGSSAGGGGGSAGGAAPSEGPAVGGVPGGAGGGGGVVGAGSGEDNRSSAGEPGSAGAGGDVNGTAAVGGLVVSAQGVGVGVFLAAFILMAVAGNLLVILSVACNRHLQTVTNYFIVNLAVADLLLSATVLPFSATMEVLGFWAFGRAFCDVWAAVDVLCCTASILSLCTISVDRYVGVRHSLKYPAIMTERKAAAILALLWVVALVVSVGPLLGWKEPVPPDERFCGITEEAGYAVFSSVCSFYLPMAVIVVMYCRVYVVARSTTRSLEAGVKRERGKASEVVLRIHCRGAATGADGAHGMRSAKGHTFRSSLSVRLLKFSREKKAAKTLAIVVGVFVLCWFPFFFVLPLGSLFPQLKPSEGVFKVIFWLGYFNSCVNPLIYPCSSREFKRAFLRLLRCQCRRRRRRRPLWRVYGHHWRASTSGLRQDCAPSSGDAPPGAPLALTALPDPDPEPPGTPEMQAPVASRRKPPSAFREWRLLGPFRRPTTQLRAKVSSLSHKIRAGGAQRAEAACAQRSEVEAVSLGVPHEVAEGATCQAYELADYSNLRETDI
UniProt P35368, whole entry: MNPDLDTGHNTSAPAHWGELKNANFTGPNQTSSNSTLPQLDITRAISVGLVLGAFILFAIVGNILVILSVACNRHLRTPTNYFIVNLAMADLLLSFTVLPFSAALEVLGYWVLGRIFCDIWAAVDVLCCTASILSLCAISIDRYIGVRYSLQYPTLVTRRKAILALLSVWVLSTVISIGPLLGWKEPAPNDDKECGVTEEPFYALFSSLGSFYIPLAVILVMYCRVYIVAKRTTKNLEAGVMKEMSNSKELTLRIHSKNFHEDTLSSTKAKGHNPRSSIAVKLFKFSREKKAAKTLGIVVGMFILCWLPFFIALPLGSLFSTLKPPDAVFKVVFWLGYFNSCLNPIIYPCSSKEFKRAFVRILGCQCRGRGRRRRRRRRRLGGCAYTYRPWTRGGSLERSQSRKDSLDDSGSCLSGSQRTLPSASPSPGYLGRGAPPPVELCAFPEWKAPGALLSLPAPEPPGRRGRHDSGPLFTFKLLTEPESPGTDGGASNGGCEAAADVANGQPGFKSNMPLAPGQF

Assays:
[1] = target: α1a-AR (Homo sapiens, UniProt P35348); experiment: radioligand ([125I]-HEAT) receptor binding assay, COS cell membranes expressing cloned receptor; conditions: read-out: α1a IC50, [125I]-HEAT 50 pM, 1 hour room temperature
[2] = target: α1d-AR (Homo sapiens, UniProt P25100); experiment: as above; conditions: read-out: α1d IC50, [125I]-HEAT 50 pM, 1 hour room temperature
[3] = target: α1b-AR (Homo sapiens, UniProt P35368); experiment: as above; conditions: read-out: α1b IC50, [125I]-HEAT 50 pM, 1 hour room temperature
[4] = system: rat aorta tissues; experiment: norepinephrine-induced contractile response of rat aortic rings; format: cell-based; conditions: read-out: IC50 of inhibition of contractile response in aortic tissue; norepinephrine-induced contraction, Long Evans rat aortic rings, 2 grams tension, 37° C.
From the text: (§1) The contractile responses of rat prostatic tissue and rat aorta tissues were examined in the presence and absence of antagonist compounds. As an indication of the selectivity of antagonism, test compound effects on vascular smooth muscle contractility (α1b-AR and α1d-AR) were compared to the effects on prostatic smooth muscle (α1a-AR). Strips of prostatic tissue and aortic rings were obtained from Long Evans derived male rats weighing 275 grams and sacrificed by cervical dislocation. The prostate tissue was placed under 1 gram tension in a 10 ml bath containing phosphate buffered saline pH 7.4 at 32° C. and isometric tension was measured with force transducers. The aortic tissue was placed under 2 grams tension in a 10 ml bath containing phosphate buffered saline pH 7.4 at 37° C.

[5] = system: rat prostatic tissue; experiment: norepinephrine-induced contractile response of rat prostatic tissue strips; format: cell-based; conditions: read-out: IC50 of inhibition of contractile response in prostate tissue; norepinephrine-induced contraction, Long Evans rat prostatic strips, 1 gram tension, 32° C.
From the text: as §1

IC50 [1]	IC50 [2]	IC50 [3]	IC50 [4]	IC50 [5]	SMILES
160 pM	37000 pM	1.65e+06 pM	42500 nM	750 nM	Cc1ccc(N2C(=O)c3ccc(C(=O)NC[C@H](O)CN4CCN(c5ccccc5OC(C)C)CC4)cc3C2=O)cc1
		1.75e+06 pM			COc1ccc(N2C(=O)c3ccc(C(=O)NC[C@H](O)CN4CCN(c5ccccc5OC(C)C)CC4)cc3C2=O)cc1

Second part, the compound before the results:

SMILES	IC50 [1]	IC50 [2]	IC50 [3]	IC50 [4]	IC50 [5]
Cc1ccc(N2C(=O)c3ccc(C(=O)NC[C@H](O)CN4CCN(c5ccccc5OC(C)C)CC4)cc3C2=O)cc1C	260 pM	121000 pM	> 2e+06 pM		
COc1ccc(N2C(=O)c3ccc(C(=O)NC[C@H](O)CN4CCN(c5ccccc5OC(C)C)CC4)cc3C2=O)c(OC)c1	590 pM	56000 pM	> 2e+06 pM		
COc1cc(N2C(=O)c3ccc(C(=O)NC[C@H](O)CN4CCN(c5ccccc5OC(C)C)CC4)cc3C2=O)cc(OC)c1OC	620 pM	51000 pM	> 2e+06 pM		
